Consider nine compounds from US9079895B2, “Morpholino compounds, uses and methods” (University of Dundee, priority 2012, dated 2015).

Protein sequences, listed by entry. Tags and fused reporters are not part of them.
UniProt P25100, whole entry: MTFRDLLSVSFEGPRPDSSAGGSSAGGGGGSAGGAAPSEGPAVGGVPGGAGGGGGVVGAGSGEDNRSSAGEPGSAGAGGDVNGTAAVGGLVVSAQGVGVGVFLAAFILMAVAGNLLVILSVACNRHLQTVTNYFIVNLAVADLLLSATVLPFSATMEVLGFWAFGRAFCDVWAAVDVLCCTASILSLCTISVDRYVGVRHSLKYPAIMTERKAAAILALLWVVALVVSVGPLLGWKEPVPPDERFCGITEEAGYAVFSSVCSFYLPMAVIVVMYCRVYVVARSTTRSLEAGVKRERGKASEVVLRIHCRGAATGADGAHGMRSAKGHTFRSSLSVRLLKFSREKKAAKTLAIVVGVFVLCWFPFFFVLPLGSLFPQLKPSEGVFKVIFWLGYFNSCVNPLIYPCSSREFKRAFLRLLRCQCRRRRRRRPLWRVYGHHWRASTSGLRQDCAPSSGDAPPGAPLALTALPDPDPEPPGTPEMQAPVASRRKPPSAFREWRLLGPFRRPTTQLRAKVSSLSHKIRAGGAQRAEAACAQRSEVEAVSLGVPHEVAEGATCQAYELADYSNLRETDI
UniProt P08908, whole entry: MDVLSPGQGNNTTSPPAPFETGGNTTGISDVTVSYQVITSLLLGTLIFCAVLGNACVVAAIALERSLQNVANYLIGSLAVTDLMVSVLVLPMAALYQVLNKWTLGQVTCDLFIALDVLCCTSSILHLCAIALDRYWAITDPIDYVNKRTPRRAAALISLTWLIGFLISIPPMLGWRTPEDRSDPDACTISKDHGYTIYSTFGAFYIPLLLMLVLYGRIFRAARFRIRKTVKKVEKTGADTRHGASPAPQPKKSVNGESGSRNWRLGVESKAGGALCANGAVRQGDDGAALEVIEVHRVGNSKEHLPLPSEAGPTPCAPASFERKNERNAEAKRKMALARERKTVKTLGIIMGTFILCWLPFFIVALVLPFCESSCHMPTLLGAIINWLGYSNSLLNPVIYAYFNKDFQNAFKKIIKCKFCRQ
UniProt P21917, whole entry, species assumed: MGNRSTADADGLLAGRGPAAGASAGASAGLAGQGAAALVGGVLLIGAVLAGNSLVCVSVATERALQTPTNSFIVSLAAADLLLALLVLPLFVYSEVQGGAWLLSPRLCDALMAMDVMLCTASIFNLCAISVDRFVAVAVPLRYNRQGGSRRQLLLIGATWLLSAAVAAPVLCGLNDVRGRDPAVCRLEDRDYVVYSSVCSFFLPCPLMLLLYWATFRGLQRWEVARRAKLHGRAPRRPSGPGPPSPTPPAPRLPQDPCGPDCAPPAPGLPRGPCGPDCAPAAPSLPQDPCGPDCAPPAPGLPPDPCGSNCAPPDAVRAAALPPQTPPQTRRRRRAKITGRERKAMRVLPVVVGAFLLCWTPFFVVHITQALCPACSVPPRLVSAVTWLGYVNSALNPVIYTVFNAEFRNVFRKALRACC
UniProt P41595, whole entry: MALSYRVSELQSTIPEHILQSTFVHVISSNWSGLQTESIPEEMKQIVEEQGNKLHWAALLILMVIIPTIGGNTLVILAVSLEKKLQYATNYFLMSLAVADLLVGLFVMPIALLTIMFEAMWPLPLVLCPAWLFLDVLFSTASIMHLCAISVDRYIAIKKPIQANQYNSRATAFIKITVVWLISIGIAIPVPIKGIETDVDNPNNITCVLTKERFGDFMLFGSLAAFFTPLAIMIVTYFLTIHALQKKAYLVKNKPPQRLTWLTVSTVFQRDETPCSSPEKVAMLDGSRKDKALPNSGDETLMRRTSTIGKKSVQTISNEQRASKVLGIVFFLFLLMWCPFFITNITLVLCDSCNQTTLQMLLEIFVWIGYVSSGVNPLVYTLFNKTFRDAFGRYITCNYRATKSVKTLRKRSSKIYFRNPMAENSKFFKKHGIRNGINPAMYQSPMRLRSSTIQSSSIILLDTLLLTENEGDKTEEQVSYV

Experiment [1] deals with Alpha1D adrenergic receptor (Homo sapiens (Human), UniProt P25100). Nature of the experiment: Secondary radioligand binding assay, Alpha1D. As to conditions: average of at least two experiments.
In a further experiment the target is 5HT1a receptor (Homo sapiens (Human), UniProt P08908). The experiment is described as follows: Secondary radioligand binding assay, 5HT1a. As to conditions: average of at least two experiments.
Another experiment deals with dopamine D4 receptor (Homo sapiens (Human), UniProt P21917). The experiment is described as follows: Secondary radioligand binding assay, D4.
The next experiment deals with 5HT2b receptor (Homo sapiens (Human), UniProt P41595). The experiment is described as follows: Secondary radioligand binding assay, 5HT2b.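 Note: competition binding against a radioligand on membranes from transfected cell lines, 1.5 h incubation at room temperature, filter-retained radioactivity counted by liquid scintillation.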 Conditions: average of at least two experiments.
The mark [2] stands for this setting: receptor binding, average of at least two experiments, read-out: Ki D4.

Structures are written as SMILES. Where “and” joins values, the source holds several entries; their conditions need not be identical. Identical values can stand only once. Like-named read-outs stand apart in the source and are kept apart here.

The compound `c1ccc(OC[C@@H]2CN(CCN3CCc4ccccc43)CCO2)cc1` [Compound 19s, (S)-4-(2-(Indolin-1-yl)ethyl)-2-(phenoxymethyl)morpholine] displayed a Ki in experiment [1] of 2310 nM.

Take `Clc1cccc(OC[C@@H]2CN(CCN3CCc4ccccc43)CCO2)c1` [Compound 23s, (S)-2-((3-chlorophenoxy)methyl)-4-(2-(indolin-1-yl)ethyl)morpholine]: the Ki was 545 nM at 5HT1a receptor; < 1000 nM and 146 nM on dopamine D4 receptor (setting [2]).

As to `Clc1cncc(OC[C@@H]2CN(CCN3CCc4ccccc43)CCO2)c1` [Compound 27s, (S)-2-(((5-Chloropyridin-3-yl)oxy)methyl)-4-(2-(indolin-1-yl)ethyl)morpholine], on dopamine D4 receptor (setting [2]), the Ki was 90 nM and < 1000 nM.

Turning to `O=C(CN1CCO[C@@H](COc2ccccn2)C1)N1CCc2ccccc21` [Compound 14r, (R)-1-(Indolin-1-yl)-2-(2-((pyridin-2-yloxy)methyl)morpholino)ethanone], the Ki on 5HT1a receptor came to 7320 nM.

With `Cc1ccnc(OC[C@H]2CN(CC(=O)N3CCc4ccccc43)CCO2)c1` [Compound 16r], affinity on 5HT1a receptor was put at a Ki of 2300 nM.

Take `Clc1cccc(OC[C@H]2CN(CCN3CCc4ccccc43)CCO2)c1` [Compound 23r, (R)-2-((3-Chlorophenoxy)methyl)-4-(2-(indolin-1-yl)ethyl)morpholine]: the Ki at dopamine D4 receptor (setting [2]) came out at 1670 nM.

`COc1cccc(OC[C@H]2CN(CCN3CCc4ccccc43)CCO2)c1` [Compound 25r, (R)-4-(2-(Indolin-1-yl)ethyl)-2-((3-methoxyphenoxy)methyl)morpholine]: the affinity on 5HT2b receptor, expressed as Ki, was 2690 nM.

For `Clc1cncc(OC[C@H]2CN(CCN3CCc4ccccc43)CCO2)c1` [Compound 27r, (R)-2-(((5-Chloropyridin-3-yl)oxy)methyl)-4-(2-(indolin-1-yl)ethyl)morpholine], the Ki is less than 1000 nM at dopamine D4 receptor (read-out: Ki dopamine D4 (relatively high affinity)) and 3620 nM on dopamine D4 receptor (setting [2]).

With `COc1cccc(OC[C@@H]2CN(CCN3CCc4ccccc43)CCO2)c1` [Compound 25s, (S)-4-(2-(Indolin-1-yl)ethyl)-2-((3-methoxyphenoxy)methyl)morpholine], the Ki on 5HT2b receptor amounted to 658 nM; in experiment [1], 6450 nM.
